Results as given in patent US10835514B2, “Dry powder inhaler compositions of 7-azoniabicyclo[2.2.1]heptane derivatives” (dated 2020).
Where “and” joins values, the source holds several entries; their conditions need not be identical. Identical values can stand only once.

What was measured:
[1] = Thermogravimetric analysis (TGA) of micronized and non-micronized material; conditions: FIG. 1
[2] = Blend uniformity: HPLC assay of random blend samples; conditions: 6 samples, Lactohale 200 carrier
[3] = Particle size distribution by laser diffraction (micronization); conditions: for Particle Size VMD / Particle Size X10 / Particle Size X50 / Particle Size X90: micronized material
[4] = Aerodynamic particle size determination by Next Generation Impactor (NGI)
[5] = 50 μg TRN-157 blend with 10 mg Lactohale, Mean of NGI 1-3
[6] = 50 μg TRN-157 blend with 10 mg Lactohale, single NGI run
[7] = 50 μg TRN-157 blend with 20 mg Lactohale, Mean of NGI 1-3
[8] = 50 μg TRN-157 blend with 20 mg Lactohale, single NGI run
[9] = TRN-157/mometasone blend, Lactohale 200 carrier, Mean of NGI runs
[10] = TRN-157/mometasone blend, Respitose SV003 carrier, Mean of NGI 1-6

C[N+]1(C)C2CC[C@@H]1[C@@H](OC(=O)[C@](O)(c1ccccc1)C1CCCC1)C2.[Br-]
TGA pattern, micronized vs non-micronized material [1]: no change in the physical structure | TRN-157 Blend Assay % RSD (uniformity of blend) [2]: 3.8% | starting particle size X50 ([3]; before micronization): 12 μm | starting particle size X90 ([3]; before micronization): 40 μm | Particle Size VMD ([3]; Average of 3 replicates): 2.12 μm | Particle Size X10 ([3]; Average of 3 replicates): 0.52 μm | Particle Size X50 ([3]; Average of 3 replicates): 1.93 μm | Particle Size X90 ([3]; Average of 3 replicates): 3.94 μm | Particle Size VMD ([3]; single replicate): 2.18 μm and 2.07 μm and 2.11 μm | Particle Size X10 ([3]; single replicate): 0.51 μm and 0.52 μm (2×) | Particle Size X50 ([3]; single replicate): 1.97 μm and 1.89 μm and 1.92 μm | Particle Size X90 ([3]; single replicate): 4.08 μm and 3.82 μm and 3.93 μm | FPD [4, 5]: 12.96 µg | FPF [4, 5]: 34.5% | NGI Capsule [4, 5]: 2.295 µg | NGI Device [4, 5]: 10.940 µg | NGI Preseparator [4, 5]: 12.995 µg | NGI Stage 1 [4, 5]: 2.184 µg | NGI Stage 2 [4, 5]: 3.567 µg | NGI Stage 3 [4, 5]: 4.342 µg | NGI Stage 4 [4, 5]: 4.485 µg | NGI Stage 5 [4, 5]: 1.594 µg | NGI Stage 6 [4, 5]: 0.401 µg | NGI Stage 7 [4, 5]: 0.060 µg | NGI Throat [4, 5]: 7.925 µg | FPD [4, 6]: 12.15 µg and 14.53 µg and 12.22 µg | FPF [4, 6]: 31.3% and 38.0% and 34.3% | NGI Capsule [4, 6]: 2.610 µg and 1.996 µg and 2.278 µg | NGI Preseparator [4, 6]: 12.225 µg and 13.200 µg and 13.560 µg | NGI Stage 1 [4, 6]: 2.036 µg and 2.280 µg and 2.237 µg | NGI Stage 2 [4, 6]: 3.764 µg and 3.412 µg and 3.525 µg | NGI Stage 3 [4, 6]: 4.004 µg and 4.624 µg and 4.398 µg | NGI Stage 4 [4, 6]: 3.924 µg and 5.344 µg and 4.186 µg | NGI Stage 5 [4, 6]: 1.560 µg and 1.922 µg and 1.300 µg | NGI Throat [4, 6]: 10.840 µg and 6.810 µg and 6.125 µg | FPD [4, 7]: 9.7 µg | FPF [4, 7]: 26.0% | NGI Capsule [4, 7]: 1.436 µg | NGI Device [4, 7]: 10.694 µg | NGI Preseparator [4, 7]: 17.153 µg | NGI Stage 1 [4, 7]: 2.459 µg | NGI Stage 2 [4, 7]: 3.356 µg | NGI Stage 3 [4, 7]: 2.977 µg | NGI Stage 4 [4, 7]: 3.248 µg | NGI Stage 5 [4, 7]: 1.138 µg | NGI Stage 6 [4, 7]: 0.333 µg | NGI Stage 7 [4, 7]: 0.040 µg | NGI Throat [4, 7]: 6.610 µg | FPD [4, 8]: 11.32 µg and 8.67 µg and 9.22 µg | FPF [4, 8]: 28.8% and 23.1% and 26.2% | NGI Device [4, 8]: 8.130 µg and 8.393 µg and 15.560 µg | NGI Preseparator [4, 8]: 17.820 µg and 17.339 µg and 16.300 µg | NGI Stage 1 [4, 8]: 2.484 µg and 2.685 µg and 2.207 µg | NGI Stage 2 [4, 8]: 3.433 µg and 3.372 µg and 3.263 µg | NGI Stage 3 [4, 8]: 3.732 µg and 1.960 µg and 3.240 µg | NGI Stage 4 [4, 8]: 3.588 µg and 3.291 µg and 2.865 µg | NGI Stage 5 [4, 8]: 1.402 µg and 1.067 µg and 0.945 µg | NGI Throat [4, 8]: 6.280 µg and 7.436 µg and 6.115 µg | change of particle size distribution (NGI) on storage ([4]; 1 month at 25° C./60% RH and 40° C./75% RH): no significant change | FPD [4, 9]: 1.2 µg | FPF [4, 9]: > 30% and 38.8% | NGI Capsule [4, 9]: 0.200 µg | NGI Device [4, 9]: 1.000 µg | NGI Preseparator [4, 9]: 1.000 µg | NGI Stage 1 [4, 9]: 0.600 µg | NGI Stage 2 [4, 9]: 0.400 µg | NGI Stage 3 [4, 9]: 0.400 µg | NGI Stage 4 [4, 9]: 0.400 µg | NGI Stage 5 [4, 9]: 0.200 µg | NGI Stage 6 [4, 9]: 0.000 µg | NGI Stage 7 [4, 9]: 0.000 µg | NGI Throat [4, 9]: 0.700 µg | NGI Preseparator ([4]; TRN-157/mometasone blend, Lactohale 200 carrier, single NGI run): 0.902 µg and 1.003 µg and 1.180 µg | FPD [4, 10]: 0.9 µg | NGI Capsule [4, 10]: 0.146 µg | NGI Device [4, 10]: 0.431 µg | NGI Preseparator [4, 10]: 2.100 µg | NGI Stage 1 [4, 10]: 0.141 µg | NGI Stage 2 [4, 10]: 0.209 µg | NGI Stage 3 [4, 10]: 0.289 µg | NGI Stage 4 [4, 10]: 0.318 µg | NGI Stage 5 [4, 10]: 0.125 µg | NGI Stage 6 [4, 10]: 0.030 µg | NGI Stage 7 [4, 10]: 0.005 µg | NGI Throat [4, 10]: 0.804 µg | FPD ([4]; TRN-157/mometasone blend, Respitose SV003 carrier, single NGI run): 1.0 µg and 0.8 µg and 0.9 µg | FPF ([4]; TRN-157 used alone (lactose blend without mometasone), initial time points): 35-40% | increase of aerodynamic particle size ([4]; at 12 months, 25° C./60% RH): 0.4 μm | aerodynamic particle size distribution ([4]; in the various blends): about 2.4 μm
